Each structure is given as a SMILES string.

For the experiment, the system named is Normal neonatal human epidermal melanocytes (NHEM 2489). Kind of experiment: Melanin production in normal human epidermal melanocytes. Particulars: 20 μM added every 24 hours, 72 hours, versus DMSO control; visual inspection of lysed cell solution (FIG. 1).

As to `COc1cccc(-c2cc(=O)c3ccccc3o2)c1N` [PD98059], the melanin production result is recorded as “significant melanin production”.

The values above are taken from US20050202001A1 (priority 2002, published 2005).
